Molecular target: Translocator protein (Homo sapiens, UniProt P30536)
Test: Binding affinity to human PBR

Protein sequences, listed by entry. Tags and fused reporters are not part of them.
UniProt P30536, whole entry: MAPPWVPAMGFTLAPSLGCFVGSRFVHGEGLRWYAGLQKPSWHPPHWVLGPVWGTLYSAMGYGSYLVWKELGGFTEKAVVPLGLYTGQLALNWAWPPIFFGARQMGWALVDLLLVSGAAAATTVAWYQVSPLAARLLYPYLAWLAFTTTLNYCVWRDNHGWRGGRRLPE

CCC(C)N(C)C(=O)c1cc2ccccc2c(-c2ccccc2Cl)n1 (stereo unspecified) [PK-11195]
Kd: 2 nM
